# Laboratory results: PubChem BioAssay AID720704 (The Scripps Research Institute Molecular Screening Center, 2013)
# Sequences of proteins named here, by UniProt entry; tags and fusion partners are left off.
# UniProt Q01970, whole entry: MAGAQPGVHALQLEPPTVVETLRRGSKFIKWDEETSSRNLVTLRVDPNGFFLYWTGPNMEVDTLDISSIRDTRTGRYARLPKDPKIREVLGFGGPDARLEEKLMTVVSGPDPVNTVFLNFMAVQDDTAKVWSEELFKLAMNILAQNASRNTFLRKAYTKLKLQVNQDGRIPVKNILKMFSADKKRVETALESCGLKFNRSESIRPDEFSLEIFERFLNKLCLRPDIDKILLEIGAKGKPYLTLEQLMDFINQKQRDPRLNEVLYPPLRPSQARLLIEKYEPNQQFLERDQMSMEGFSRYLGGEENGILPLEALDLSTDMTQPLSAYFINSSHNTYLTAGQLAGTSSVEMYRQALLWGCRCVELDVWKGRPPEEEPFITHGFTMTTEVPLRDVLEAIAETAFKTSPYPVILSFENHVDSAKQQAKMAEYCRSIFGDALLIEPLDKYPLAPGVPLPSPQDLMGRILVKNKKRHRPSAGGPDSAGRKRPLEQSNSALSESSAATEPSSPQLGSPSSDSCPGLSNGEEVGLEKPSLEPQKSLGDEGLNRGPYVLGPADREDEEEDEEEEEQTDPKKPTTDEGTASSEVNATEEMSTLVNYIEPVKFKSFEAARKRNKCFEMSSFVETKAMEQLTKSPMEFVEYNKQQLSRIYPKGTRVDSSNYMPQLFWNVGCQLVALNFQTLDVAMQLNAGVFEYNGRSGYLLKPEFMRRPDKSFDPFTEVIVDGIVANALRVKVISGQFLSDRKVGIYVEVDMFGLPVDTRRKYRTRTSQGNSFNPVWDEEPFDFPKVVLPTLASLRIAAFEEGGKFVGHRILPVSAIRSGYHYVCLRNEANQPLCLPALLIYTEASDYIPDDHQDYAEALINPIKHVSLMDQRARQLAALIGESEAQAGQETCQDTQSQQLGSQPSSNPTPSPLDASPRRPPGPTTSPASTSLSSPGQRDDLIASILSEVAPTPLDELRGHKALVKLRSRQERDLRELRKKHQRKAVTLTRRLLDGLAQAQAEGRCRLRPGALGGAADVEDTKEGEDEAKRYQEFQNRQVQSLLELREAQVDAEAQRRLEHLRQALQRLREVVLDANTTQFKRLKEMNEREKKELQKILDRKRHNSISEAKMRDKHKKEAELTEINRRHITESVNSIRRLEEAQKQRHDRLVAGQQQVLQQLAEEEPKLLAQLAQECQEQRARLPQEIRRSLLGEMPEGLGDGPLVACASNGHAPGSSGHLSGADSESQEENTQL
# The entries are a selection whose mix differs from that of the whole data set. Active and inactive are the calls of the source. No stated cut-off is given here; in the data, active means inhibition above about 11%; inactive means the rest.
# Molecular target: 1-phosphatidylinositol 4,5-bisphosphate phosphodiesterase beta-3 (Homo sapiens) (UniProt Q01970)
# Assay: human PLC-beta3 inhibitors, primary screen, biochemical, fluorescence (AID 720704);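 further: 0% = median of compound wells on plate and 100% = full blocker control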
# Conditions: Purified PLC-beta3, fluorogenic substrate, at 12.2 µM, hits give high values
row,Structure (SMILES),inhibition
1,O=C(O)c1cccc(Nc2c([N+](=O)[O-])cc([N+](=O)[O-])cc2[N+](=O)[O-])c1,inactive: 7.19%
2,CC1=NCCc2c1[nH]c1ccccc21.O=[N+]([O-])c1cc([N+](=O)[O-])c(O)c([N+](=O)[O-])c1,inactive: -173%
3,Cc1cc(C)cc(OP(C)(=O)Nc2ccc(C)cc2C)c1 (centres undefined),inactive: 3.47%
4,CCOC(=O)c1ccc(NP(C)(=O)Oc2cc(C)cc(C)c2)cc1 (centres undefined),inactive: 3.6%
5,COc1ccccc1OP(C)(=O)Nc1cccc(Br)c1 (centres undefined),inactive: 4.46%
6,Cc1cc(C)cc(OP(C)(=O)Nc2ccccn2)c1 (centres undefined),inactive: 1.11%
7,CP(=O)(Nc1cccc(Br)c1)Oc1ccccc1 (centres undefined),inactive: -1.2%
8,Cc1ccc(C)c(NP(C)(=O)Oc2ccccc2)c1 (centres undefined),inactive: 1.64%
9,CN(Cc1cccnc1)C(=O)COc1ccc(Cl)c(Cl)c1.O=[N+]([O-])c1cc([N+](=O)[O-])c(O)c([N+](=O)[O-])c1,inactive: -0.3%
10,O=[N+]([O-])c1cc([N+](=O)[O-])c(-n2nnc3ccccc32)c([N+](=O)[O-])c1,inactive: 3.8%
11,Cc1nc2ccc3ccccc3c2s1.O=[N+]([O-])c1cc([N+](=O)[O-])c(O)c([N+](=O)[O-])c1,active: 12.2%
12,O=[N+]([O-])c1cc([N+](=O)[O-])c(-c2cnn(-c3ccccc3)c2)c([N+](=O)[O-])c1,inactive: -5.38%
13,CCOC(=O)C(CC)C1=NC(C)(C)Cc2ccccc21.O=[N+]([O-])c1cc([N+](=O)[O-])c(O)c([N+](=O)[O-])c1 (centres undefined),inactive: -5.56%
14,O=[N+]([O-])c1cc([N+](=O)[O-])c(Nc2nnnn2CCO)c([N+](=O)[O-])c1,inactive: 1.56%
15,CCCOc1ccc(NP(C)(=O)Oc2ccc(Cl)cc2)cc1 (centres undefined),inactive: -0.41%
16,CP(=O)(Nc1ccc(SC(F)(F)F)cc1)Oc1ccccc1 (centres undefined),inactive: 2.35%
17,COc1ccc(-c2ccccn2)cc1.O=[N+]([O-])c1cc([N+](=O)[O-])c(O)c([N+](=O)[O-])c1,inactive: 1.21%
18,COc1ccccc1OP(C)(=O)Nc1c(C)cccc1C (centres undefined),inactive: 2.6%
19,CN1CCCCC1COC(=O)C1(O)c2ccccc2CCc2ccccc21 (centres undefined),inactive: 2.21%
20,COc1ccccc1OP(C)(=O)Nc1ccccc1 (centres undefined),inactive: -4.91%
21,CP(=O)(Nc1ccccc1Br)Oc1ccccc1 (centres undefined),inactive: -1.87%
22,CP(=S)(Nn1cnnc1)Oc1ccccc1 (centres undefined),inactive: -3.3%
23,Cc1cc(C)cc(OP(C)(=O)Nc2ccc(SC(F)(F)F)cc2)c1 (centres undefined),inactive: 4.52%
24,CP(=O)(NC(=O)Nc1ccccc1)Oc1ccccc1 (centres undefined),inactive: 3.26%
25,CCc1ccc(OP(C)(=O)N2CCN(c3ccc([N+](=O)[O-])cc3)CC2)cc1 (centres undefined),inactive: -6.25%

row,Structure (SMILES),inhibition
1,CP(=O)(Oc1ccccc1)OC(c1ccccc1)C(F)(F)F (centres undefined),inactive: -5.39%
2,Cc1cccc(C)c1OP(C)(=O)Nc1ccc(SC(F)(F)F)cc1 (centres undefined),inactive: -15.2%
3,CP(=O)(Nc1ccc(SC(F)(F)F)cc1)Oc1ccc(Cl)cc1 (centres undefined),inactive: 1.12%
4,CP(=O)(Nc1ccccn1)Oc1ccc(Cl)cc1 (centres undefined),inactive: -0.88%
5,CCOP(C)(=S)SCC(=O)NC(C)C(=O)O (centres undefined),inactive: 3.73%
6,CCOC(=O)c1ccc(NP(C)(=O)Oc2ccc(OC)cc2)cc1 (centres undefined),inactive: 1.82%
7,O=[N+]([O-])c1cc([N+](=O)[O-])c(O)c([N+](=O)[O-])c1.c1ccc(Oc2ccncc2)cc1,inactive: -2.05%
8,CCN(CC)CCCOC(=O)C(O)(c1ccccc1)c1ccccc1,inactive: -9.03%
9,COc1ccccc1-c1ccccn1.O=[N+]([O-])c1cc([N+](=O)[O-])c(O)c([N+](=O)[O-])c1,inactive: 1.9%
10,Cc1cccc(C)c1OP(C)(N)=O (centres undefined),inactive: -2.51%
11,CC(C)(C)c1ccc(OP(C)(=O)Nc2ccc(SC(F)(F)F)cc2)cc1 (centres undefined),inactive: 1.94%
12,O=[N+]([O-])c1ccc2c(c1)C=Nc1ccccc1O2,inactive: 4.82%
13,O=[N+]([O-])c1cc([N+](=O)[O-])c(Nc2cccnc2)c([N+](=O)[O-])c1,inactive: 5.38%
14,COc1ccc(OP(C)(=O)Nc2cccc(F)c2)cc1 (centres undefined),inactive: 1.28%
15,COc1ccccc1OP(C)(=O)Nc1cc(Cl)ccc1C (centres undefined),inactive: 3.16%
16,Cc1cc(C)cc(OP(C)(N)=O)c1 (centres undefined),inactive: -1.27%
17,CCOC(=O)c1ccc(NP(C)(=O)Oc2ccccc2)cc1 (centres undefined),inactive: -1.62%
18,Cc1ccc(NP(C)(=O)Oc2ccccc2)c(C)c1 (centres undefined),inactive: 0.48%
19,COc1ccccc1OP(C)(=O)Nc1ccc(C)cc1 (centres undefined),inactive: 6.09%
20,COc1ccc(OP(C)(=O)Nc2ccccc2Br)cc1 (centres undefined),inactive: 1.79%
21,COc1ccccc1OP(C)(=O)Nc1ccc(C)c(C)c1 (centres undefined),inactive: 1.14%
22,Cc1cc(C)cc(OP(C)(=O)Nc2cccc(C(F)(F)F)c2)c1 (centres undefined),inactive: 2.9%
23,O=C1C(O)=C([N+](=O)[O-])C(=O)C(O)=C1[N+](=O)[O-],inactive: 0.99%
24,CCCCCCCCCCCCCCCC1C[N+](C)(C)CCOP(C)(=O)O1 (centres undefined),inactive: 4.11%
